## CycPeptMPDB entries from one study

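The data file gives no further conditions (lipid, pH, time, direction or concentration), and values from different papers need not be comparable. The list need not hold all peptides of the study. Peptides that the database sets to -10, its floor, are left out.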

PAMPA measures passive passage through an artificial lipid membrane.
Caco-2 values are permeabilities across monolayers of Caco-2 human intestinal cells.
P is given in units of 10^-6 cm/s (from log10 values with two decimals); larger means faster passage.
Cells with "n/a" have no entry in this list.

PAMPA (10^-6 cm/s) | Caco-2 (10^-6 cm/s) | compound
0.17 | n/a | CCCCCN1CC(=O)N[C@@H](CC(C)C)C(=O)N[C@@H](CCCC)C(=O)N2CCC[C@H]2C(=O)N(CC)CC(=O)N[C@@H](C)C1=O
0.11 | n/a | CCCC[C@@H]1NC(=O)[C@@H](CC(C)C)NC(=O)CN(CC2CCOCC2)C(=O)[C@@H](Cc2ccccc2)NC(=O)CN(CC)C(=O)[C@@H]2CCCN2C1=O
7.9 | n/a | CCCC[C@@H]1NC(=O)[C@H](CC(C)C)NC(=O)CN(CC2CCCCC2)C(=O)[C@H](C)NC(=O)CN(Cc2ccc3c(c2)OCO3)C(=O)[C@H]2CCCN2C1=O
0.068 | n/a | CCCC[C@@H]1NC(=O)[C@@H](CC(C)C)N(C)C(=O)CN(CC2CCCCC2)C(=O)[C@H](Cc2ccccc2)NC(=O)CN(Cc2ccc3c(c2)OCO3)C(=O)[C@H]2CCCN2C1=O
0.46 | n/a | CCCC[C@@H]1NC(=O)[C@H](CC(C)C)NC(=O)CN(CC2CCOCC2)C(=O)[C@H](C)NC(=O)CN(Cc2ccc3c(c2)OCO3)C(=O)[C@H]2CCCN2C1=O
1.4 | n/a | CCCC[C@@H]1NC(=O)[C@H](CC(C)C)N(C)C(=O)CN(CC2CCCCC2)C(=O)[C@H](Cc2ccccc2)NC(=O)CN(CCCOC(C)C)C(=O)[C@H]2CCCN2C1=O
0.34 | n/a | CCCC[C@@H]1NC(=O)[C@H](CC(C)C)N(C)C(=O)CN(CC2CCOCC2)C(=O)[C@H](C)NC(=O)CN(CCCOC(C)C)C(=O)[C@H]2CCCN2C1=O
4.8 | n/a | CCCCCN1CC(=O)N[C@@H](CC(C)C)C(=O)N[C@@H](CCCC)C(=O)N2CCC[C@@H]2C(=O)N(Cc2ccc3c(c2)OCO3)CC(=O)N[C@@H](C)C1=O
5.9 | n/a | CCCCCN1CC(=O)N[C@H](CC(C)C)C(=O)N[C@@H](CCCC)C(=O)N2CCC[C@H]2C(=O)N(CC)CC(=O)N[C@H](Cc2ccccc2)C1=O
0.091 | n/a | CCCC[C@@H]1NC(=O)[C@H](CC(C)C)N(C)C(=O)CN(CC2CCOCC2)C(=O)[C@@H](C)NC(=O)CN(CCCOC(C)C)C(=O)[C@@H]2CCCN2C1=O
6.9 | n/a | CCCCCN1CC(=O)N(C)[C@@H](CC(C)C)C(=O)N[C@@H](CCCC)C(=O)N2CCC[C@@H]2C(=O)N(CCCOC(C)C)CC(=O)N[C@H](Cc2ccccc2)C1=O
0.032 | n/a | CCCC[C@@H]1NC(=O)[C@@H](CC(C)C)NC(=O)CN(CC2CCOCC2)C(=O)[C@@H](C)NC(=O)CN(CCCOC(C)C)C(=O)[C@@H]2CCCN2C1=O
0.78 | n/a | CCCCCN1CC(=O)N[C@@H](CC(C)C)C(=O)N[C@@H](CCCC)C(=O)N2CCC[C@H]2C(=O)N(CCCOC(C)C)CC(=O)N[C@@H](C)C1=O
0.0054 | n/a | CCCC[C@@H]1NC(=O)[C@@H](CC(C)C)NC(=O)CN(CC2CCCCC2)C(=O)[C@@H](Cc2ccccc2)NC(=O)CN(Cc2ccc3c(c2)OCO3)C(=O)[C@H]2CCCN2C1=O
8.1 | n/a | CCCCCN1CC(=O)N(C)[C@@H](CC(C)C)C(=O)N[C@@H](CCCC)C(=O)N2CCC[C@H]2C(=O)N(CCCOC(C)C)CC(=O)N[C@H](Cc2ccccc2)C1=O
11 | n/a | CCCC[C@@H]1NC(=O)[C@@H](CC(C)C)NC(=O)CN(CC2CCCCC2)C(=O)[C@H](Cc2ccccc2)NC(=O)CN(CC)C(=O)[C@@H]2CCCN2C1=O
14 | n/a | CCCCCN1CC(=O)N(C)[C@H](CC(C)C)C(=O)N[C@@H](CCCC)C(=O)N2CCC[C@H]2C(=O)N(Cc2ccc3c(c2)OCO3)CC(=O)N[C@@H](C)C1=O
3.2 | 1 | CCCC[C@@H]1NC(=O)[C@H](CC(C)C)N(C)C(=O)CN(CC2CCOCC2)C(=O)[C@H](Cc2ccccc2)NC(=O)CN(CC)C(=O)[C@H]2CCCN2C1=O
0.093 | n/a | CCCC[C@@H]1NC(=O)[C@H](CC(C)C)NC(=O)CN(CC2CCOCC2)C(=O)[C@@H](C)NC(=O)CN(Cc2ccc3c(c2)OCO3)C(=O)[C@@H]2CCCN2C1=O
4.8 | n/a | CCCC[C@@H]1NC(=O)[C@H](CC(C)C)N(C)C(=O)CN(CC2CCCCC2)C(=O)[C@@H](C)NC(=O)CN(CC)C(=O)[C@@H]2CCCN2C1=O

Extract of 2 entries:

compound | PAMPA (10^-6 cm/s) | Caco-2 (10^-6 cm/s)
CCCC[C@@H]1NC(=O)[C@@H](CC(C)C)NC(=O)CN(CC2CCCCC2)C(=O)[C@@H](Cc2ccccc2)NC(=O)CN(Cc2ccc3c(c2)OCO3)C(=O)[C@H]2CCCN2C1=O | 0.0054 | n/a
CCCCCN1CC(=O)N[C@@H](CC(C)C)C(=O)N[C@@H](CCCC)C(=O)N2CCC[C@H]2C(=O)N(CCCOC(C)C)CC(=O)N[C@@H](C)C1=O | 0.78 | n/a

Data: CycPeptMPDB; original report Furukawa et al. 2016, doi:10.1021/acs.jmedchem.6b01246.